The values that follow come from ChEMBL document CHEMBL1137924, “Carbonic anhydrase inhibitors. Inhibition of the beta-class enzyme from the methanoarchaeon Methanobacterium thermoautotrophicum (Cab) with anions” (Bioorg Med Chem Lett, 2004).

Each structure is given as a SMILES string.

In assay [1] the target is T1, Carbonic anhydrase (Methanosarcina thermophila, UniProt P40881).
T1 sequence (P40881 whole entry): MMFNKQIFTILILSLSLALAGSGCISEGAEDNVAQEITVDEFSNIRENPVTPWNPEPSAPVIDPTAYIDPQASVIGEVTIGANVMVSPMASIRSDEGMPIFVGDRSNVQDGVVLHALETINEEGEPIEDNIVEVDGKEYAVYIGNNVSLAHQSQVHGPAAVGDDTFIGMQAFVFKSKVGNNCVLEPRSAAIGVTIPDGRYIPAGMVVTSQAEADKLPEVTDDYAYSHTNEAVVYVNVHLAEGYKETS
Format: functional.

The target of assay [2] is T2, Carbonic anhydrase (Methanobacterium thermoautotrophicum, UniProt Q50565).
T2 sequence (Q50565 whole entry): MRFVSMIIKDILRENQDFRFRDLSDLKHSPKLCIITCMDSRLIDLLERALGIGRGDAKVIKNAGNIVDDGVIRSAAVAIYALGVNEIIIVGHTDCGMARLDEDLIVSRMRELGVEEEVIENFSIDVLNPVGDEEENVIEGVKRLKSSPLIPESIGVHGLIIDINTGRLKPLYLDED
Also on record: species or system Methanothermobacter thermautotrophicus str. Delta H.

The term Ki denotes a dissociation constant, usually derived from enzyme kinetics or from competition with a known ligand. Low readings indicate higher affinity, high ones lower affinity. Take `F` [FLUORIDE ION]: the Ki at Carbonic anhydrase [1] was more than 200 mM.

Turning to `O=S(=O)(O)O` [SULFURIC ACID], affinity at Carbonic anhydrase [2] was put at a Ki of 45.1 mM.

For `N#CS` [THIOCYANIC ACID], affinity at Carbonic anhydrase [2] was put at a Ki of 0.52 mM.
